From PubChem BioAssay AID1259423 (Fisher Drug Discovery Resource Center, 2018)
“And” between values parts separate entries of the source, which are not always exact repeats. Identical values can stand only once. The entries are a selection whose mix differs from that of the whole data set. The source made the active and inactive calls. Cut-off read from the data, not from the text of the source: active = activation above about 40%; inactive = the rest, inconclusive results apart.

System: Aedes aegypti neuropeptide Y-like receptor 7 (NPYLR7)
Assay: agonists of mosquito NPYLR7 receptor, primary screen, cell-based, Aedes aegypti, calcium fluorescence, mosquito biting behavior (AID 1259423);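 note: 0% = vehicle and 100% = reference agonist at the receptor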
Conditions: HEK293T NPYLR7/Galpha15, GCaMP6s calcium fluorescence; at 10 µM; hits give high values

Q: Which activation does the source give for `COP1(=S)c2c(C)nn(-c3ccccc3)c2N=C(c2ccc(F)cc2)N1C` (stereo not drawn) here?
A: Its activation is inactive: -2.87%.

Q: For `COc1cc(Br)c([N+](=O)[O-])nc1[N+](=O)[O-]`, which activation is on record?
A: Its activation is inactive: -3.8%.

Q: How did the activation turn out when `CC(C)(C)NC1=NCC(CI)S1` (stereo not drawn) was run?
A: Its activation is inactive: -2.8%.

Q: With `O=C(O[C@H]1CN2CCC1CC2)C1NCc2ccccc2[C@@H]1c1ccccc1` (stereo partly drawn) as the compound, how does the activation read?
A: The activation was inactive: -3.33%.

Q: For `O=P(C=C(Cl)c1ccccc1)(C=C(Cl)c1ccccc1)Nc1nncs1`, which activation is on record?
A: Its activation is inactive: -0.372%.

Q: `CCOP(OCC)N1CCOCC1` was tested. Which activation did it give?
A: Its activation is inactive: -12.8%.

Q: With `CCN(CC)C1=NP(=O)(c2ccccc2)NC(c2ccccc2)=C1C#N` (stereo not drawn) as the compound, how does the activation read?
A: Its activation is inactive: 0.73%.

Q: Which activation does the source give for `O=C(NC(Sc1ccncn1)C(Cl)(Cl)Cl)c1ccccc1` (stereo not drawn) here?
A: Its activation is inactive: -12%.

Q: With `Cc1c2non([O-])c-2c(C)[n+](=O)[n+]1[O-]` as the compound, how does the activation read?
A: The activation was inactive: 0.392%.

Q: For `O=P(O)(O)F`, which activation is on record?
A: Its activation is inactive: -6.88% and inactive: -5.33%.

Q: Which activation does the source give for `CCOP1(=S)c2c(C)nn(-c3ccccc3)c2N=C(c2ccccc2F)N1C` (stereo not drawn) here?
A: The activation was inactive: -1.94%.

Q: Which activation does the source give for `O=P(Nc1nccs1)(c1ccc(Br)cc1)c1ccc(Br)cc1` here?
A: Its activation is inactive: -1.25%.

Q: How did the activation turn out when `COP(=O)(NS(=O)(=O)c1ccc(Cl)cc1)OC` was run?
A: The activation was inactive: 1.73%.

Q: `O=C(OC1CN2CCC1CC2)C1COc2ccccc2O1` (stereo not drawn) was tested. Which activation did it give?
A: Its activation is inactive: -0.808%.

Q: How did the activation turn out when `CCCCOP1(=S)N=C2c3ccccc3CN2c2cc(N(C)C)ccc21` (stereo not drawn) was run?
A: The activation was inactive: -2.52%.

Q: With `Cc1ccc(NC(=O)COC(=O)C(C)(O)c2cccc(F)c2)c(C)c1` (stereo not drawn) as the compound, how does the activation read?
A: Its activation is inactive: 5.43%.

Q: With `CCCCOP(=O)(OCCCC)N(CC)CC` as the compound, how does the activation read?
A: The activation was inactive: -10.7%.

Q: How did the activation turn out when `CCOP1(=S)c2c(C)nn(-c3ccccc3)c2N=C(c2ccccc2)N1C1CC1` (stereo not drawn) was run?
A: Its activation is inactive: -6.17%.

Q: Which activation does the source give for `O=P(Nc1ccccn1)(c1ccc(Br)cc1)c1ccc(Br)cc1` here?
A: The activation was inactive: 6.79%.

Q: How did the activation turn out when `CCOC(=O)NC(Sc1nc2ccccc2o1)C(Cl)(Cl)Cl` (stereo not drawn) was run?
A: The activation was inactive: 3.66%.

Q: With `O=P(Nc1nccs1)(c1ccccc1)c1ccccc1` as the compound, how does the activation read?
A: The activation was inactive: 7.23%.

Q: Which activation does the source give for `O=P1(Nc2nc(-c3ccc(F)cc3)cs2)C=C(c2ccccc2)OC(c2ccccc2)=C1` here?
A: Its activation is inactive: 2.34%.

Q: For `CCC(C)C(=O)N1CCCC(C(=O)OC2CN3CCC2CC3)C1` (stereo not drawn), which activation is on record?
A: The activation was inactive: 3.26%.

Q: How did the activation turn out when `O=P1(Nc2nncs2)C=C(c2ccccc2)SC(c2ccccc2)=C1` was run?
A: The activation was inactive: 0.509%.

Q: `Cc1c([N+](=O)[O-])c([N+](=O)[O-])nn1CC(=O)Nc1ccc([N+](=O)[O-])cc1Cl` was tested. Which activation did it give?
A: The activation was inactive: -4.14%.

Q: `CN(C)c1ccc2c(c1)N1Cc3ccccc3C1=NP2(=O)c1ccccc1` (stereo not drawn) was tested. Which activation did it give?
A: Its activation is inactive: -4.15%.

Q: For `O=C(NC1CCS(=O)(=O)C1)NP(=S)(Oc1ccccc1)Oc1ccccc1` (stereo not drawn), which activation is on record?
A: The activation was inactive: -2.67%.

Q: `O=C(c1cccc([N+](=O)[O-])c1)c1ccc([N+](=O)[O-])c([N+](=O)[O-])c1` was tested. Which activation did it give?
A: The activation was inactive: -1.4%.

Q: For `CC[N+](CC)=C1SC2CS(=O)(=O)C(Br)C2(C)S1` (stereo not drawn), which activation is on record?
A: The activation was inactive: -7.62%.

Q: `O=C(OC1CN2CCC1CC2)c1ccccc1` (stereo not drawn) was tested. Which activation did it give?
A: The activation was inactive: -20.5%.

Q: For `CC1CCC(C(C)C)C(OP(=O)(Nc2nccs2)c2ccccc2)C1` (stereo not drawn), which activation is on record?
A: The activation was inactive: -2.66%.

Q: Which activation does the source give for `CCOP1(=S)c2c(C)nn(CCC#N)c2N=C(c2ccccc2F)N1C` (stereo not drawn) here?
A: Its activation is inactive: -6.55%.

Q: Which activation does the source give for `O=P(Nc1nccs1)(c1ccccc1)c1nc2ccccc2s1` (stereo not drawn) here?
A: The activation was inactive: -2.35%.

Q: For `COc1cccc(OP(=NC(=S)N2CCOCC2)(C(C)(C)C)C(C)(C)C)c1`, which activation is on record?
A: The activation was inactive: 6.16%.

Q: How did the activation turn out when `CC(C)N(C(=O)C12CC3CC(C1)CC(P(=O)(Cl)Cl)(C3)C2)C(C)C` was run?
A: The activation was inactive: 2.03%.

Q: How did the activation turn out when `CN1c2ccccc2N2CC(C)(CI)SC12` (stereo not drawn) was run?
A: Its activation is inactive: 1.29%.

Q: For `NC(=O)Nc1ccc([As](=O)(O)O)cc1`, which activation is on record?
A: The activation was inactive: -6.37%.

Q: For `Cc1ccnc(NP2(=O)C=C(c3ccccc3)OC(c3ccccc3)=C2)c1`, which activation is on record?
A: The activation was inactive: -5.4%.

Q: With `CN(C(=O)Cc1ccccc1)[C@@H]1CC[C@]2(CCCO2)C[C@H]1N1CCCC1` as the compound, how does the activation read?
A: Its activation is inactive: -0.531%.

Q: For `CCOP1(=S)c2c(C)nn(-c3ccccc3)c2N=C(c2ccc(F)cc2)N1C` (stereo not drawn), which activation is on record?
A: Its activation is inactive: -2%.

Q: For `CN(C(=O)Cc1ccc(Cl)c(Cl)c1)[C@@H]1CC[C@]2(CCCO2)C[C@H]1N1CCCC1`, which activation is on record?
A: Its activation is inactive: 2.75%.

Q: Which activation does the source give for `COc1cc(-n2cnnn2)ccc1-n1cnnn1` here?
A: Its activation is inactive: 5.17%.

Q: How did the activation turn out when `CN(CCCl)Cc1cc2cc(I)ccc2s1` was run?
A: Its activation is inactive: -5.3%.

Q: With `CN1C(=O)C2C(N=C(N3CCOCC3)N2CCc2ccccc2)N(C)C1=O` (stereo not drawn) as the compound, how does the activation read?
A: Its activation is inactive: -2.98%.

Q: Which activation does the source give for `Cc1ccc(NP(=O)(OCC(F)(F)F)OCC(F)(F)F)nc1` here?
A: The activation was inactive: 8.06%.

Q: How did the activation turn out when `CCOP(=O)(NC(=NC(C)c1ccccc1)NC(C)c1ccccc1)OCC` (stereo not drawn) was run?
A: The activation was inactive: 1.74%.

Q: `CN(CCCl)Cc1cc(Cl)c(NC2=NCCN2)c(Cl)c1` was tested. Which activation did it give?
A: The activation was inactive: 7.36%.

Q: `CC1CCC(C(C)C)C(OP(=O)(Nc2ccccn2)c2ccccc2)C1` (stereo not drawn) was tested. Which activation did it give?
A: Its activation is inactive: 2.68% and inactive: 2.4%.

Q: For `Cc1n[n+]2c([nH]c1=O)SCC(Br)C2c1ccccc1` (stereo not drawn), which activation is on record?
A: Its activation is inactive: -3.79%.

Q: `BrC1CSc2nc3ccccc3n2C1c1ccccc1` (stereo not drawn) was tested. Which activation did it give?
A: Its activation is inactive: 16.9%.

Q: Which activation does the source give for `O=C1c2no[n+]([O-])c2C(=O)c2no[n+]([O-])c21` here?
A: Its activation is inactive: -8.92%.

Q: For `O=[N+]([O-])c1ccc(-c2csc(NP3(=O)C=C(c4ccccc4)OC(c4ccccc4)=C3)n2)cc1`, which activation is on record?
A: Its activation is inactive: -5.51%.

Q: How did the activation turn out when `CCSP(=O)(c1ccccc1)c1ccccc1` was run?
A: The activation was inactive: 6.76%.

Q: How did the activation turn out when `CN1CC(=O)NC1=NP(=O)(OCc1ccccc1)OCc1ccccc1` was run?
A: Its activation is inactive: -0.354%.

Q: How did the activation turn out when `N#Cc1ccc(-c2csc(NP3(=O)C=C(c4ccccc4)OC(c4ccccc4)=C3)n2)cc1` was run?
A: Its activation is inactive: 7.53%.

Q: For `O=C(CBr)c1ccc([N+](=O)[O-])cc1`, which activation is on record?
A: The activation was inactive: 2.88%.

Q: Which activation does the source give for `COP1(=S)c2c(C)nn(-c3ccccc3)c2N=C(c2ccccc2)N1C1CC1` (stereo not drawn) here?
A: Its activation is inactive: -5.4%.

Q: With `O=C1OC2C3CC(CC13)C2SC(CCl)C(F)(F)F` (stereo not drawn) as the compound, how does the activation read?
A: Its activation is inactive: -0.513%.

Q: With `COc1ccc2nc(NP(=O)(c3ccccc3)c3ccccc3)sc2c1` as the compound, how does the activation read?
A: The activation was inactive: 2.02%.

Q: `CN(C)C1=C(c2c([N+](=O)[O-])cc([N+](=O)[O-])cc2[N+](=O)[O-])CCCC1` was tested. Which activation did it give?
A: The activation was inactive: -13.3%.

Q: With `CCCOP(=O)(OCCC)O/C(C)=C/SC#N` as the compound, how does the activation read?
A: Its activation is inactive: 1.76%.

Q: For `O=P(N=c1nc(-c2ccccc2)n(-c2ccccc2)s1)(N1CCOCC1)N1CCOCC1`, which activation is on record?
A: Its activation is inactive: 0.798%.

Q: Which activation does the source give for `N#CCOC(=O)C(O)(c1ccccc1)c1ccccc1` here?
A: Its activation is inactive: -2.72%.

Q: Which activation does the source give for `O=P1(Nc2nc(-c3ccccc3)cs2)C=C(c2ccccc2)OC(c2ccccc2)=C1` here?
A: The activation was inactive: 0.509%.

Q: `Nc1nonc1OCCOc1nonc1N` was tested. Which activation did it give?
A: Its activation is inactive: -2.07%.

Q: Which activation does the source give for `CC(C)NC(=O)NP(=O)(Oc1ccccc1)Oc1ccccc1` here?
A: Its activation is inactive: 1.76%.

Q: For `O=C(OC1CN2CCC1CC2)c1cccc2[nH]cnc12` (stereo not drawn), which activation is on record?
A: The activation was inactive: 3.32%.

Q: For `COP1(=S)N=C2c3ccccc3CN2c2cc(N(C)C)ccc21` (stereo not drawn), which activation is on record?
A: Its activation is inactive: 2.4%.
